Experiments:
MDA-MB-468 control cells = assay: Caspase-3/-7 activation and TUNEL in MDA-MB-468 control cells; conditions: 24 h, tested form: diammonium salt (as drawn, CO2NH4)
Procedure: FIG. 6 is a series of images illustrating BH3-M6 induces apoptosis in a Bcl-2-, Bcl-XL-, and Mcl-1-dependent manner. BH3-M6 induces caspase-3/-7 activities and apoptosis in Bcl-XL/Bim, Bcl-2/Bim and Mcl-1/Bim overexpressing cells. MDA-MB-468 cells transfected with Bcl-XL-IRES-BimEL, Bcl-2-IRES-BimEL, and Mcl-1-IRES-BimEL were grown in 100-mm plates and treated with 0, 25, 50, or 100 μM BH3-M6 or 100 μM of TPC for 24 h at 37° C. Cells were then harvested and lysed using 0.2% NP-40 lysis buffer (without protease and phosphatase inhibitors for cell-free caspase assay and with protease and phosphatase inhibitors for Western blot analysis). (A) Caspase-3/-7 activity was determined by incubating whole-cell extracts with caspase-3/-7 substrate and measuring free AMCs (left panel), apoptosis was quantified by TUNEL assay (middle panel), gray: TPC, black: BH3-M6. BimEL, Bcl-XL, Bcl-2 and Mcl-1 expression levels were determined by Western blotting (right panel). (B) PARP cleavage by Western blotting. (C) Expression levels of different anti- and pro-apoptotic proteins in DU-145 and LNCaP cells as determined by Western blotting. (D) BH3-M6 induces apoptosis in LNCaP human prostate cancer cells expressing Bax, but not in DU-145 human prostate cancer cells lacking detectable Bax expression. LNCaP and DU-145 cells were treated with 0, 25 and 50 μM of BH3-M6 or 50 μM of TPC for 24 h. […]

By UniProt entry, the sequences of proteins in these tests, tags left out.
UniProt Q07817, whole entry: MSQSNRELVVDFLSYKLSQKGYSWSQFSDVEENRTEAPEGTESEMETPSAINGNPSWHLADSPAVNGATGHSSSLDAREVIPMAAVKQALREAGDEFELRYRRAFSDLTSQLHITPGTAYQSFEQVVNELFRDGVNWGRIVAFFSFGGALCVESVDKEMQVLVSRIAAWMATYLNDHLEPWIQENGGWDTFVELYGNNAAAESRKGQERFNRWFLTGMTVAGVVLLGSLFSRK

Bcl-XL/Bad interaction = Bcl-XL/Bad interaction (Homo sapiens, UniProt Q07817); assay: GFP-Bad mitochondrial localization by fluorescence microscopy in COS-7 cells; conditions: COS-7 cells co-expressing GFP-Bad and HA-Bcl-XL, 100 μM, 4 h; tested form: diammonium salt (as drawn, CO2NH4)
Procedure: FIG. 3 is a series of images illustrating BH3-M6 inhibits the Bcl-XL interaction with Bad in intact cells. BH3-M6 inhibits Bcl-XL-induced GFP-Bad mitochondrial localization. COS-7 cells were grown in DMEM supplemented with 10% FBS and antibiotics, transfected with the indicated constructs, treated and analyzed as described in EXPERIMENTAL PROCEDURES. (A) cells expressing pEGFP-Bad and pcDNA3-HA-Bcl-XL. (B) quantification of the fluorescence data (gray: diffuse, black: punctate cells). At least 85 transfected cells per sample were counted in three different fields of view.
COS-7 cells were seeded onto glass cover slips in 24-well plates and transfected with 1 μg pEGFP-Bad expression vector alone or co-transfected with 0.5 μg pEGFP-Bad and 0.5 μg pcDNA3-HA-Bcl-XL sing TransFectin™ reagent. After 18 h, cells were treated with DMSO, 100 μM of BH3-M6, or TPC for 4 h in the presence of a caspase inhibitor (50 μM z-VAD-fmk) to prevent apoptosis. […] Following another wash with cold PBS, the cover slips were mounted with DAPI-containing mount media (Vector Laboratories, Burlingame, Calif.) and analyzed by fluorescence microscopy.
To determine whether BH3-M6 is active in intact cells, the inventors used two methods: fluorescence microscopy for cells exogenously expressing Bcl-XL and GFP-Bad, as well as co-immunoprecipitation of endogenous proteins.

CC(C)Cc1cc(-c2ccc(-c3ccc(CCC(=O)O)cc3CC(C)C)cc2Cc2ccccc2)ccc1OCC(=O)O
apoptosis by caspase-3/-7 activation and TUNEL assays (MDA-MB-468 control cells): little apoptosis | inhibition of Bcl-XL-induced Bad mitochondrial localization (Bcl-XL/Bad interaction): about 50%
